Assay results: patent publication US20260216158A1, “OCULAR IMPLANT CONTAINING A TYROSINE KINASE INHIBITOR” (OCULAR THERAPEUTIX, INC., priority 2023, published 2026)

Details: 4 h

Fumaric Acid
Thermodynamic solubility in PBS, pH 7.4 at 37° C., 4 hours: 0.4 μg/mL
